The target in experiment [1] is T1, human Nectin-4 (human, UniProt Q96NY8 32-349).
T1 construct: a Gly32-Ser349 FLAG construct is described only under the SPR assay; also called PVRL4
T1 sequence (looked up): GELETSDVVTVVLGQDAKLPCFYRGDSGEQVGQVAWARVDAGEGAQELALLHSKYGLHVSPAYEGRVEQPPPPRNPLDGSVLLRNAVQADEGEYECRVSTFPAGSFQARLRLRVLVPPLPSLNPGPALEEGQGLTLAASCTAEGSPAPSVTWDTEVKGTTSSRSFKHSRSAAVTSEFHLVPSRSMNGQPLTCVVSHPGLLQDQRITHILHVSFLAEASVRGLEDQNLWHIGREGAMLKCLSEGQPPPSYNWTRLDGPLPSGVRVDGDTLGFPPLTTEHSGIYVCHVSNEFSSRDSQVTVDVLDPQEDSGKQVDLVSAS
Put plainly: FP competition, tracer SEQ ID NO 217. On the procedure:
Peptides were diluted to an appropriate concentration in assay buffer as described in the direct binding assay with a maximum of 5% DMSO, then serially diluted 1 in 2. […] Measurements were conducted as for the direct binding assay, however the gain was determined prior to the first measurement. Data analysis was in Systat Sigmaplot version 12.0 where the mP values were fit to a user defined cubic equation to generate a Ki value: […]

Experiment [2] addresses T2, Human Nectin-4 (residues Gly32-Ser349) with C-terminal FLAG tag, biotinylated (human, UniProt Q96NY8 32-349, randomly biotinylated with EZ-Link Sulfo-NHS-LC-LC-Biotin).
T2 construct: range 32-349; Captured through biotin on a streptavidin CM5 chip in the SPR assay; also called PVRL4; not shown: C-terminal FLAG tag
T2 sequence (looked up): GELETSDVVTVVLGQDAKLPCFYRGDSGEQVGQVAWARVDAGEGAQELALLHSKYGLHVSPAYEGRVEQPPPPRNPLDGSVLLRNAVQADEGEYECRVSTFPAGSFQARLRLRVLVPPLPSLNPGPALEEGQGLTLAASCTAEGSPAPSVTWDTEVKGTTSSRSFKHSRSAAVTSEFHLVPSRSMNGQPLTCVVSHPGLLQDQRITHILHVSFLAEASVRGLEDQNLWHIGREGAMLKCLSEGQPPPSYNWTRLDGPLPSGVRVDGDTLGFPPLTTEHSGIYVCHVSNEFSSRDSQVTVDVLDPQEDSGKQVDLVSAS
Put plainly: SPR (Biacore), biotinylated human Nectin-4 on streptavidin chip.

Experiment [3] has as its target T2, Human Nectin-4 (residues Gly32-Ser349) …. The description is as above. The source holds these as a separate data set.

Read-outs that look alike come from different tables or passages of the source.

Broadly, the Ki is the equilibrium dissociation constant of an inhibitor or competing ligand from its target. High values mean weaker binding, low ones tighter binding. Turning to ACYPLSPYWCERICA (TATA on 3 Cys) [BCY431], in experiment [1], the Ki worked out at 412 nM. In other words, the sub-micromolar range.

B1: BCY8550 (peptide)
peptide: CPXXCMXDWSTPXWC
modifications: N-terminal acetyl; MMAE-PABC-Cit-Val-Glutaryl- linked at the Lys3 position ([dK]; cysteines not counted); core printed as CP[1Nal][dK]CM[HArg]DWSTP[HyP]WC; three Cys bound to TATA scaffold
notes: also called MMAE-PABC-Cit-Val-Glutaryl-(Lys3)-BCY8831
As usually defined, the Kd is the constant that tells how readily two partners part at equilibrium. A higher Kd goes with lower affinity. In experiment [2], B1 had a Kd of 0.27 nM.

On to CPXGCMKNWSWPIWC (N-terminal Ac; CP[4MePhe]GCMKNWSWPIWC; TATA on 3 Cys) [BCY7581], for which the Ki in experiment [1] stood at 19.4 nM.

B2: BCY8549 (peptide)
peptide: CPXXCMXDWSTPXWC
modifications: not fully specified; MMAE-PABC-cyclobutyl-(B-Ala)- on the N-terminal extension [B-Ala][Sar10]; core printed as CP[1Nal][dD]CM[HArg]DWSTP[HyP]WC; three Cys bound to TATA scaffold
notes: also called MMAE-PABC-cyclobutyl-(B-Ala)-BCY8234
On to B2, for which binding in experiment [2] was characterised by a dissociation constant (Kd) of 1.44 nM.

CPFGCMKNWSWPIXC (not fully specified; N-terminal Ac; CPFGCMKNWSWPI[AzaTrp]C; TATA on 3 Cys) [BCY7598] came in with an inhibitory constant (Ki) in experiment [1] of 74.9 nM.

The molecule CPFGCMXNWSWPIWC (N-terminal Ac; CPFGCM[K(Ac)]NWSWPIWC; TATA on 3 Cys) [BCY7616] gave an inhibition constant Ki in experiment [1] of 51 nM.

Turning to CPFGCMKNWSXPIWC (not fully specified; N-terminal Ac; CPFGCMKNWS[AzaTrp]PIWC; TATA on 3 Cys) [BCY7593], the affinity in experiment [1] corresponds to a Ki of 28 nM.

In the case of CPFGCMKNXSWPIWC (not fully specified; N-terminal Ac; CPFGCMKN[AzaTrp]SWPIWC; TATA on 3 Cys) [BCY7588], in experiment [1], affinity was put at a Ki of 342 nM.

B3: BCY8831 (peptide)
peptide: CPXXCMXDWSTPXWC
modifications: N-terminal acetyl; core printed as CP[1Nal][dK]CM[HArg]DWSTP[HyP]WC; three Cys bound to TATA scaffold
notes: Bicyclic peptide cyclised with TATA
On to B3, for which the affinity in experiment [3], expressed as Kd, was 2.14 nM.

Take ACPFGCMKNWSWPIWCTAK (dA as second residue of the C-terminal tail; TATA on 3 Cys) [BCY7368]: in experiment [1], the inhibition constant Ki was determined as 23 nM. In other words, the double-digit nanomolar range.

With ACPFGCMKNWSWPIWCTNA (C-terminal dA; TATA on 3 Cys) [BCY7369], the affinity in experiment [1], expressed as Ki, was 77.8 nM. This Ki is about 3.4-fold higher than that of the molecule before.

Turning to CPFGCXKNWSWPIWC (N-terminal Ac; CPFGC[Hse(Me)]KNWSWPIWC; TATA on 3 Cys) [BCY7585], the inhibitory constant (Ki) in experiment [1] was 18.5 nM.

Regarding CPFGCMQNWSWPIWC (N-terminal Ac; TATA on 3 Cys) [BCY7615], the Ki in experiment [1] was 28.4 nM.

CPFGCMKNWSWPPWC (N-terminal Ac; TATA on 3 Cys) [BCY7618]: the affinity in experiment [1] corresponds to a Ki of 13 nM.

Turning to CPYGCMKNWSWPIWC (N-terminal Ac; TATA on 3 Cys, also called 80-09-02-N046) [BCY7657], in experiment [1], the Ki was determined as 23.2 nM.

In the case of QKWCAPLSAYWCNRIC (N-terminal Ac; TATA on 3 Cys) [BCY7628], the inhibition constant Ki in experiment [1] stood at 23 nM.

For the molecule CXFGCMKNWSWPIWC (N-terminal Ac; C[HyP]FGCMKNWSWPIWC; TATA on 3 Cys) [BCY7668], in experiment [1], the affinity corresponds to a Ki of 424 nM.

In experiment [1], CPFXCMKNWSWPIWC (N-terminal Ac; CPF[dD]CMKNWSWPIWC; TATA on 3 Cys) [BCY7584] had an inhibitory constant (Ki) of 13.5 nM.

Regarding CPXGCMKNWSWPIWC (N-terminal Ac; CP[3MePhe]GCMKNWSWPIWC; TATA on 3 Cys) [BCY7580], the inhibition constant (Ki) in experiment [1] was determined as 13.5 nM.

The values are drawn from patent publication US20210269480A1 (published 2021).
